According to ChEMBL document CHEMBL4808235, “Identification of 6-hydroxy-5-phenyl sulfonylpyrimidin-4(1H)-one APJ receptor agonists” (Bioorg Med Chem Lett, 2021):
pEC50: −log10 of the molar value.

Biological target: T1, Apelin receptor (Homo sapiens, UniProt P35414)
T1 sequence (P35414 whole entry): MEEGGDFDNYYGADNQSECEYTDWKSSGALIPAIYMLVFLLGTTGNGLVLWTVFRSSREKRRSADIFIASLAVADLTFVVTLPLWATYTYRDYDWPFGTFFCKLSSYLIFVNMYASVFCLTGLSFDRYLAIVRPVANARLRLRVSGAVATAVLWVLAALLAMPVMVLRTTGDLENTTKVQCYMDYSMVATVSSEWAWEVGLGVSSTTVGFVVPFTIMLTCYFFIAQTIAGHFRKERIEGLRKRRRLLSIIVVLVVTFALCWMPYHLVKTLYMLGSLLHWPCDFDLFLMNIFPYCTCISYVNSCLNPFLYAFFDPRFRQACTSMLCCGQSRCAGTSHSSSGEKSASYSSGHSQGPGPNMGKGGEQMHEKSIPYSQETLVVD
Experiment: Agonist activity at human APJ receptor assessed as effect on cAMP accumulation by cAMP-Glo assay
Format: functional

pEC50: 10.30
Compound: COc1cccc(OC)c1-n1c(CCC(C)C)nc(=O)c(S(=O)(=O)c2ccc(-c3ccc(F)nc3)cc2)c1O
